Data on four compounds can be found in US20240109879A1, “BENZIMIDAZOLE COMPOUND AND APPLICATION THEREOF” (Medshine Discovery Inc., priority 2020, published 2024).

Amino acid sequences for entries named in this document (tags omitted). Residues count along the entry.
UniProt Q12809, whole entry: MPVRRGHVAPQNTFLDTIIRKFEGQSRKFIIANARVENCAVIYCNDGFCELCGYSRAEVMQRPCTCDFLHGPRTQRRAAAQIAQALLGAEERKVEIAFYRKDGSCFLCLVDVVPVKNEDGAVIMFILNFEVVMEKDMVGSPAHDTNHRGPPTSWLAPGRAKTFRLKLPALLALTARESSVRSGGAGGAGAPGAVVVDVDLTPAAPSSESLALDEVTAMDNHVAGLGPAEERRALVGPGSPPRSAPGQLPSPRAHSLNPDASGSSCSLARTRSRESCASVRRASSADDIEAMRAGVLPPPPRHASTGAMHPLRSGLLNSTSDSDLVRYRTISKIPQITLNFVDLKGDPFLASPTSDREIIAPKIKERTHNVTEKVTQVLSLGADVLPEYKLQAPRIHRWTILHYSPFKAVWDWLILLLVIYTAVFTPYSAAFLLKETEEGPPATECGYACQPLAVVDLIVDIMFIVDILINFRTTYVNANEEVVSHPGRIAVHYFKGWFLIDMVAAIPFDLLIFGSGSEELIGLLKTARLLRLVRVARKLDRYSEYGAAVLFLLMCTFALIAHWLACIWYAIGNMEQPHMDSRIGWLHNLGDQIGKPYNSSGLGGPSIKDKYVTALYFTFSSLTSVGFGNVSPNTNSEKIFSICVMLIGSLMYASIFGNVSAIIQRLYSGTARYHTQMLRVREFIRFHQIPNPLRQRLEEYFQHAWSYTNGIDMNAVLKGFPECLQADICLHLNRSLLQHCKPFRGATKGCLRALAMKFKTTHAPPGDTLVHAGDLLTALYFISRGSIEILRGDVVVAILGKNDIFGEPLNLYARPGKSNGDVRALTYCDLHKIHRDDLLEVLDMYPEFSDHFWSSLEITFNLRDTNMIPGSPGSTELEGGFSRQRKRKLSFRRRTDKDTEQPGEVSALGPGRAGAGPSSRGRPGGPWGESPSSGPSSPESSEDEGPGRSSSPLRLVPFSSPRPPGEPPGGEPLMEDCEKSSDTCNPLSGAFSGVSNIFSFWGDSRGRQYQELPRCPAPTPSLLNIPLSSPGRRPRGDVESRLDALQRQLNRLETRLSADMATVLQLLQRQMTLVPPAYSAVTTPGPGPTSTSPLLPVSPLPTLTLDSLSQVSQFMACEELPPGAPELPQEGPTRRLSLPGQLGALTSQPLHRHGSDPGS
UniProt Q09472, 1049-1156 limits assumed: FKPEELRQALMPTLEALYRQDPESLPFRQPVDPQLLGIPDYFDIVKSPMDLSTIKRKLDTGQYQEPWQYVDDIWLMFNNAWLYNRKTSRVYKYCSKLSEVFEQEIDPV

The nature of data set [1]: Pharmacokinetic study in CD-1 mice (intravenous injection and oral gavage). To be noted: male CD-1 mice; for Bioavailability F (%): gavage 3 mg/kg vs intravenous 0.5 mg/kg; for Cmax: read-out: Plasma drug concentration Cmax.
In data set [2] the target is hERG potassium ion channel (Homo sapiens (Human), UniProt Q12809).
A further data set deals with p300 (Homo sapiens (Human), UniProt Q09472). Nature of the data set: Assay of p300 protein activity (HTRF, p300-GST with Histone H4 (1-21) K5/8/12/16Ac-GG-Biotin peptide ligand). The conditions noted are these: read-out: p300 (IC50), 5 nM p300-GST, 50 nM peptide ligand. A general note: TR-FRET usually uses a lanthanide donor and a delayed reading to cut background.

Some results are limits rather than exact numbers.

For orientation: IC50 means the point on the concentration scale where inhibition reaches its midpoint. In the case of `COC12CCC(n3c(C4CCCC(=O)N4c4ccc(F)c(F)c4)nc4cc(-c5c(C)noc5C)ccc43)(CC1)CC2` (single isomer, unassigned), in data set [1], the “Bioavailability F (%)” value amounted to 40%. Also, in data set [1] (gavage, 3 mg/kg), the “Area under curve (0-inf) AUC0-inf” value was determined as 1.598 µM·h, the “Area under curve (0-t) AUC0-last” value was 1.588 µM·h, the “Time to peak Tmax” value came to 30 min and the “half-life T1/2” value turned out to be 49.8 min. The Cmax in data set [1] (gavage, 3 mg/kg) came to 1280 nM. In data set [1] (intravenous, 0.5 mg/kg), the “Apparent distribution volume Vdss” value worked out at 1.46 L/kg, the “Area under curve (0-inf) AUC0-inf” value stood at 0.652 µM·h, the “Area under curve (0-t) AUC0-last” value is 0.626 µM·h and the “Clearance Cl” value was determined as 22.8 mL/min/kg. Also, the “half-life T1/2” value in data set [1] (intravenous, 0.5 mg/kg) amounted to 46.8 min. Further, in data set [2], the IC50 is > 40000 nM.

For the compound `COC12CCC(n3c(C4CC5CC5C(=O)N4c4ccc(F)c(F)c4)nc4cc(-c5c(C)noc5C)ccc43)(CC1)CC2` (single isomer, unassigned), in data set [1], the “Bioavailability F (%)” value came to 54%. Besides, in data set [1] (gavage, 3 mg/kg), the “Area under curve (0-inf) AUC0-inf” value was determined as 2.07 µM·h, the “Area under curve (0-t) AUC0-last” value amounted to 2.019 µM·h, the “Time to peak Tmax” value is 45 min and the “half-life T1/2” value turned out to be 101 min. The Cmax in data set [1] (gavage, 3 mg/kg) stood at 546 nM. In data set [1] (intravenous, 0.5 mg/kg), the “Apparent distribution volume Vdss” value is 1.33 L/kg, the “Area under curve (0-inf) AUC0-inf” value is 0.637 µM·h, the “Area under curve (0-t) AUC0-last” value came to 0.624 µM·h and the “Clearance Cl” value was 22.9 mL/min/kg. Moreover, the “half-life T1/2” value in data set [1] (intravenous, 0.5 mg/kg) is 43.9 min. In data set [2], the IC50 is > 40000 nM.

On to `CO[C@H]1CC[C@H](n2c(C3CCSC(=O)N3c3ccc(F)c(F)c3)nc3cc(-c4c(C)noc4C)ccc32)CC1` (some centres unmarked), for which the IC50 on p300 worked out at 11 nM.

As to `CO[C@H]1CC[C@H](n2c(C3CC4CC4C(=O)N3c3ccc(F)c(F)c3)nc3c(C)c(-c4c(C)noc4C)ccc32)CC1` (some centres unmarked), on p300, the IC50 amounted to 10.3 nM.
